{"source": "patent US8247227B2", "about": "“Dendritic cell precursors” (The Cleveland Clinic Foundation, priority 2006, dated 2012)", "system": "L-selectin^low T cells", "assay": "T cell co-cultures with variously conditioned DCs", "type": "cell-based, mouse", "details": "DCs from other conditioning treatments", "procedure": "FIGS. 8A-B show the impact of initial Step 1 DC conditioning treatments upon later T cell cultures. Step 2 DC cultures were performed in rGMCSF and rIL-4 with irradiated MCA-203 cells added at 24 hr and CpG+LPS added at 44 hr. Four hours later, DCs were harvested for co-culture with L-selectin^low T cells freshly harvested from MCA-203 tumor-bearing mice. T cells were co-cultured with DCs at an 8:1 ratio or were activated with immobilized anti-CD3. FIG. 8A is a series of slides showing individual T cell cultures after 6 day co-culture with DCs (labels indicate prior DC conditioning treatments) or with anti-CD3. Cultures shown also received exogenous IL-2, IL-7 and IL-15. This is representative of three full comparison experiments. FIG. 8B is a graph showing the response of conditioned DCs to adoptive therapy. […] Five day established MCA-203 subcutaneous tumors were treated i.v. with T cells from MCA-203 bearers after 12 day culture driven by Flt3-L+IL-6 conditioned DCs or by anti-CD3. Conventional non-myelablative total body irradiation (500 cGy) was given as an adjunct prior to T cells.\nFIGS. 13A-B show T cell expansion. […] Cultures shown also received exogenous IL2, IL7 and IL15. FIG. 13B is a graph tabulating T cell expansions. […]"}
{"substance": "IL2", "values": [{"measurement": "rescue of DC toxicity to T cells by exogenous cytokine", "result": "could not be rescued"}]}
